From ChEMBL document CHEMBL3861996, “Arylsulfonamide derivatives of (aryloxy)ethyl pyrrolidines and piperidines as α1-adrenergic receptor antagonist with uro-selective activity” (Bioorg Med Chem, 2016)

Organism: Rattus norvegicus
Experiment: Selectivity ratio of Ki for alpha2 adrenergic receptor in rat brain cerebral cortex membranes to Ki for alpha1 adrenergic receptor in rat brain cerebral cortex membranes
Assay type: cell membranes
Procedure, shortened: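 Rat cerebral cortex homogenized in ice-cold 50 mM Tris–HCl (pH 7.6), spun at 20,000 g for 20 min (0–4 °C), resuspended and spun again. Membranes incubated with 0.2 nM [3H]-prazosin (α1) or 2 nM [3H]-clonidine (α2) and seven to eight compound concentrations (10^-11 to 10^-4 M). Non-specific binding defined with 10 µM phentolamine (prazosin) or 10 µM clonidine (clonidine). Ended by GF/C filtration, counted by liquid scintillation. Run in duplicate; Ki from two independent experiments.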

Row | Compound | Ratio Ki
1 | CC(C)Oc1ccccc1OCCN1CCC(CNS(=O)(=O)c2cccc3cccnc23)CC1 | 10
2 | COc1ccc(S(=O)(=O)NC2CCN(CCOc3ccccc3OC)CC2)cc1OC | 22
3 | COc1ccccc1OCCN1CCC(CNS(=O)(=O)c2cc(Cl)ccc2F)CC1 | 24
4 | COc1ccccc1OCCN1CCC(CNS(=O)(=O)c2cncc3ccccc23)CC1 | 8
5 | CC(C)Oc1ccccc1OCCN1CCC(CNS(=O)(=O)c2cccc(Cl)c2F)CC1 | 17
6 | COc1ccccc1OCCN1CCC(CNS(=O)(=O)c2cccc(Cl)c2)CC1 | 10
7 | COc1ccccc1OCCN1CCC(NS(=O)(=O)c2cncc3ccccc23)CC1 | 6
8 | COc1ccccc1OCCN1CCC(CNS(=O)(=O)c2cccc(Cl)c2F)CC1 | 14
9 | COc1ccc(S(=O)(=O)NCC2CCN(CCOc3ccccc3OC)CC2)cc1OC | 8
